Source: paper PMC3107525 (The Journal of neuroscience : the official journal of the …, 2011)

Target: hSERT Y95F/C109A/Q332C (Homo sapiens, UniProt P31645, C109A/Q332C/Y95F)
Conditions: 40 μM 5HT, 4 mM DA, 40 μM cocaine or 160 μM ibogaine

Row | Compound | effect on MTSET-inactivation
1 | ibogaine | protection from MTSET-inactivation
2 | COC(=O)[C@H]1[C@@H](OC(=O)c2ccccc2)C[C@@H]2CC[C@H]1N2C [Cocaine, cocaine] | potentiated
